Data from US9663503B2, “5-[[4-[[morpholin-2-yl]methylamino]-5-(trifluoromethyl)-2-pyridyl]amino]pyrazine-2-carbonitrile and therapeutic uses thereof” (priority 2012, dated 2017).

Key:
HT29 cells = assay: Cellular potency in Mitosis Inhibition Assay (MIA), checkpoint abrogation after etoposide; format: cell-based; conditions: etoposide pre-treatment, with nocodazole, read-out: CHK1 Cellular Potency MIA IC50
SW620 cells = assay: Cellular efficacy in combination with gemcitabine (SRB potentiation); format: cell-based; conditions: SRB IC50/Potentiation IC50, 96 hour, gemcitabine at its IC50

SMILES: Cn1cc(-c2cnc(Nc3cnc(C#N)cn3)cc2NC[C@@H]2CNCCO2)cn1 [Compound Y-152]
- IC50 (HT29 cells): 400 nM
- Cell Efficacy + Gemcitabine in SW620 cells (Potentiation Index) (SW620 cells): 8 fold
